Measured values as given in article PMC5409837 (Science translational medicine, 2017).

Tested on: VEGFR2 and PDGFRα phosphorylation
Conditions: hiPSC-CMs

CNC(=O)c1cc(Oc2ccc(NC(=O)Nc3ccc(Cl)c(C(F)(F)F)c3)cc2)ccn1 [sorafenib]
VEGFR2/PDGFR inhibition at nanomolar concentrations: complete VEGFR2/PDGFR inhibition
